This note sets out measurements from patent US20220143224A1, “MRI CONTRAST AGENT FOR USE IN THE DIAGNOSIS OF EARLY CHANGES IN THE ENDOTHELIUM OF BLOOD VESSELS” (UNIWERSYTET JAGIELLONSKI, priority 2019, published 2022).

The test system of the test is endothelial permeability in brachiocephalic artery (BCA) in ApoE/LDLR−/− mice. The experiment in a line: In vivo MRI assessment of endothelial permeability (Npx50) in brachiocephalic artery. As to conditions: 28-week-old ApoE/LDLR−/− mice, T1 before and 30 min after iv CA. The method, then: The experiments were performed using female ApoE/LDLR−/− mice of different ages: 4-, 6-, 8-, 12- and 28-week-old(19) in comparison to control young (8-week-old) mice (C57BL/6) without endothelial dysfunction. All mice (body weight 20-30 g) were housed under standard pathogen-free conditions (LD: 12/12, humidity: 60%, temperature: 23° C.).
MRI experiments were carried out using a 9.4 T scanner (BioSpec 94/20 USR, Bruker, Germany). During the experiment, mice were anesthetized using isoflurane (Aerrane, Baxter Sp. z o.o., Poland, 1.5% by volume) in an oxygen and air mixture (1:2). Cardiac activity, respiration rate and body temperature (maintained at 37° C., using circulating warm water) were monitored using Monitoring and Gating System (SA Inc., Stony Brook, N.Y., USA). […]
Endothelial permeability measurements were performed using two gadolinium contrast agents (CA); reference gadolinium albumin binding contrast agent (Galbumin, BioPAL, Worcester, Mass., USA—25 mg/mL, 4.5 mL/kg, iv) and new preparation according to the invention—Gd-diethylenetriaminepentaacetate-bis(methylamide) placed inside liposomes. Relaxation time (T1) before and 30 min after intravenous CA administration was measured to assess BCA permeability using the VFA technique(20), by sampling the signal using varying values of flip angles (FA), and then fitting the result to the expected T1-dependent signal model(21). […]

For the substance “GD albumin: reference gadolinium albumin binding contrast agent (Galbumin, BioPAL, Worcester, Mass., USA)”, the Npx50 increase entry is reported as “about 100%”.
